Data reported in ChEMBL document CHEMBL1772985, “N-(3-fluoro-4-(4-(2-methoxy or 2,3-dichlorophenyl)piperazine-1-yl)butyl)arylcarboxamides as selective dopamine D3 receptor ligands: critical role of the carboxamide linker for D3 receptor selectivity” (J Med Chem, 2011).

Chains of the proteins cited; added tags and fusions are not shown.
UniProt P08908, whole entry: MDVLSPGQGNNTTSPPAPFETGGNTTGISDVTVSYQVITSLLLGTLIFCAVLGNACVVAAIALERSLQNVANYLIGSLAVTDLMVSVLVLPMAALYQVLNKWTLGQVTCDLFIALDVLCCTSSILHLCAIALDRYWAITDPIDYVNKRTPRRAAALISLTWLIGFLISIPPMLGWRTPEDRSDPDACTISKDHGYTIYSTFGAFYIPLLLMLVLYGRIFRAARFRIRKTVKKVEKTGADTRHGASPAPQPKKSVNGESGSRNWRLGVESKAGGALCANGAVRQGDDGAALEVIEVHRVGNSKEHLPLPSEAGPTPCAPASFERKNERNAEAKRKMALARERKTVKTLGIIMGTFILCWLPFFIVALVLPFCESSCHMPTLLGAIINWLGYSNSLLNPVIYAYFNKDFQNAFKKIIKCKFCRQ
UniProt P35462, whole entry: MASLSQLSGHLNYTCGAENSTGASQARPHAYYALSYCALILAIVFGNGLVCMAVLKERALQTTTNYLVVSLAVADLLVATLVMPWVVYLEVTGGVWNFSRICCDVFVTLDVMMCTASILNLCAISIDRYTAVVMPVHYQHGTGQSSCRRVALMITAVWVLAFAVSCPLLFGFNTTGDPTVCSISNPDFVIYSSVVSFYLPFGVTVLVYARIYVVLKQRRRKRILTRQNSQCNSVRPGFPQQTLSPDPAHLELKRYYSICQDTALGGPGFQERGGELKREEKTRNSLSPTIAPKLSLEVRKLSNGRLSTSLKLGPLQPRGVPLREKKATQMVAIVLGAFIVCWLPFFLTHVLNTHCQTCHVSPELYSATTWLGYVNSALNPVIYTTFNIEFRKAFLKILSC

Assays:
[1] = molecular target: 5-hydroxytryptamine receptor 1A (Homo sapiens, UniProt P08908); assay: Agonist activity at 5HT1A receptor assessed as stimulation of [35S]GTPgammaS binding relative to control; format: functional; set-up: concentration or dose not given beside the values
[2] = organism: Homo sapiens; assay: Selectivity ratio Ki for human dopamine D2L receptor to Ki for human dopamine D3 receptor
[3] = molecular target: D(3) dopamine receptor (Homo sapiens, UniProt P35462); assay: Antagonist activity at human dopamine D3 receptor expressed in CHO-K1 cells assessed as inhibition of dopamine-induced recruitment of beta-arrestin-2 at 10 uM after 90 mins by beta-galactosidase assay; format: functional, cell-based

With O=C(NCCC(F)CN1CCN(c2cccc(Cl)c2Cl)CC1)c1ccc(-c2ccccn2)cc1 (stereo not drawn) the Activity [1] was 123%, the Ratio Ki [2] was 61 and the inhibition [3] was less than 50%.
